Results on 15 compounds are retold here after ChEMBL document CHEMBL4428027, “3-Hydroxypyrimidine-2,4-diones as Selective Active Site Inhibitors of HIV Reverse Transcriptase-Associated RNase H: Design, Synthesis, and Biochemical Evaluations” (J Med Chem, 2016).

SMILES strings stand for the structures.

One experiment has as its system Human immunodeficiency virus 1. Kind of experiment: Selectivity index, ratio of IC50 for inhibition of polymerase activity of HIV1 reverse transcriptase to IC50 for inhibition of RNase H activity of full length recombinant HIV1 reverse transcriptase.
Consider `O=c1cc(Nc2cccc(-c3ccc(F)cc3)c2)[nH]c(=O)n1O`, for which the Ratio IC50 was 33.

For the compound `COc1ccc(-c2cccc(Nc3cc(=O)n(O)c(=O)[nH]3)c2)cc1`, the Ratio IC50 turned out to be 32.

`Cc1ccc(-c2ccc(Nc3cc(=O)n(O)c(=O)[nH]3)cc2)cc1`: the Ratio IC50 was determined as 14.

Tested on in the next experiment: not listed separately
Kind of experiment: Selectivity index, ratio of IC50 for HIV integrase to IC50 for inhibition of RNase H activity of full length recombinant HIV1 reverse transcriptase.
For `Cn1c(Oc2ccc(-c3ccc(O)cc3)cc2)cc(=O)n(O)c1=O`, the Ratio IC50 worked out at 5.5.

On to `O=c1cc(Nc2cccc(-c3ccc(F)cc3)c2)[nH]c(=O)n1O`, for which the Ratio IC50 is greater than 500.

`Cn1c(Nc2cccc(-c3ccccc3)c2)cc(=O)n(O)c1=O`: the Ratio IC50 worked out at 2.6.

For the compound `COc1cccc(-c2cccc(Nc3cc(=O)n(O)c(=O)n3C)c2)c1`, the Ratio IC50 is 7.7.

Consider `Cc1noc(C)c1-c1ccc(Nc2cc(=O)n(O)c(=O)n2C)cc1`, for which the Ratio IC50 turned out to be 16.

`COc1ccc(-c2cccc(Nc3cc(=O)n(O)c(=O)[nH]3)c2)cc1`: the Ratio IC50 was greater than 500.

Regarding `COc1cc(OC)cc(-c2ccc(Nc3cc(=O)n(O)c(=O)[nH]3)cc2)c1`, the Ratio IC50 came out at 184.

Regarding `Cn1c(Nc2ccc(-c3cccc(C#N)c3)cc2)cc(=O)n(O)c1=O`, the Ratio IC50 was determined as 25.

On to `Cn1c(Oc2cccc(-c3cccc(O)c3)c2)cc(=O)n(O)c1=O`, for which the Ratio IC50 came to 7.9.

For the compound `COc1cccc(OC)c1-c1cccc(Nc2cc(=O)n(O)c(=O)[nH]2)c1`, the Ratio IC50 stood at 2.6.

For the compound `COc1ccc(-c2ccc(Nc3cc(=O)n(O)c(=O)n3C)cc2)cc1`, the Ratio IC50 turned out to be 1.1.

As for `Cc1ccc(-c2ccc(Nc3cc(=O)n(O)c(=O)[nH]3)cc2)cc1`, the Ratio IC50 fell in the range of 230 to 233.

Turning to `Cc1ccc(-c2cccc(Nc3cc(=O)n(O)c(=O)[nH]3)c2)cc1`, the Ratio IC50 was determined as 116.

Turning to `Cn1c(Nc2cccc(-c3cccc(C#N)c3)c2)cc(=O)n(O)c1=O`, the Ratio IC50 turned out to be 6.5.

As for `COc1ccc(-c2ccccc2Oc2cc(=O)n(O)c(=O)n2C)cc1`, the Ratio IC50 came out at 0.43.
